Earlier results as cited in patent US5652334A, “Method for design of substances that enhance memory and improve the quality of life” (City of Hope, priority 1993, dated 1997).

Test system: CD-1 male mice
Conditions: post-training ICV; references 1 and 12; cited from earlier work

| Substance | amnestic effect on retention of FAAT (earlier publications) |
| --- | --- |
| Val His His Gln Lys Leu Val Phe Phe (VHHQKLVFF) [β-(12-20)] | amnestic |
| Val His His Gln Lys Leu Val Phe Phe Ala Glu Asp Val Gly Ser Ash Lys (VHHQKLVFFAEDVGSNK) [β-(12-28)] | amnestic |
